Broadly, the pIC50 is −log10 of the IC50, conventionally taken in molar units.

Chains of the proteins cited; added tags and fusions are not shown. Residues count along the entry.
UniProt P25774, 115-331: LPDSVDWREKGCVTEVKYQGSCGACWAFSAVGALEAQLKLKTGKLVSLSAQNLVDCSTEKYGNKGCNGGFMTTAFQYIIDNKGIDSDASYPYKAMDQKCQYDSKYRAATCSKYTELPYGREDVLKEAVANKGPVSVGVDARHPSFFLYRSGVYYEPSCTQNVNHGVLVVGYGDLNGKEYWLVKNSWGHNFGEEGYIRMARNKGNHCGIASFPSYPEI

The values below come from patent publication US20090099157A1, “TETRAHYDRO-PYRAZOLO-PYRIDINE THIOETHER MODULATORS OF CATHEPSIN S” (priority 2007, published 2009).

pIC50: −log10 of the molar value.

In the assay the target is Recombinant human cathepsin S (CatS) (Homo sapiens, UniProt P25774). The experiment in a line: biochemical.

Regarding `COCCCNCCSc1cc(-c2nn(CCCN3CCC(N4CCCC4=O)CC3)c3c2CN(S(C)(=O)=O)CC3)ccc1C(F)(F)F` [Example 31, 1-{1-[3-(5-Methanesulfonyl-3-{3-[2-(3-methoxy-propylamino)-ethylsulfanyl]-4-trifluoromethyl-phenyl}-4,5,6,7-tetrahydro-pyrazolo[4,3-c]pyridin-1-yl)-propyl]-piperidin-4-yl}-pyrrolidin-2-one], the pIC50 is 6.05.

For the compound `OC(CN1CCC(c2ccccn2)CC1)Cn1nc(-c2ccc(C(F)(F)F)c(SCCN3CCCCC3)c2)c2c1CCNC2` (stereo not shown) [Example 230, 1-(3-{3-[(2-Piperidin-1-ylethyl)sulfanyl]-4-(trifluoromethyl)phenyl}-4,5,6,7-tetrahydro-1H-pyrazolo[4,3-c]pyridin-1-yl)-3-(4-pyridin-2-ylpiperidin-1-yl)propan-2-ol], the pIC50 is 6.74.

Consider `CS(=O)(=O)N1CCc2c(c(-c3ccc(C(F)(F)F)c(SCCN4CCCCC4Cc4ccccc4)c3)nn2CCCN2CCC(N3CCCC3=O)CC2)C1` (stereo not shown) [Example 877, 1-[1-(3-{5-(Methylsulfonyl)-3-[3-({2-[2-(phenylmethyl)piperidin-1-yl]ethyl}sulfanyl)-4-(trifluoromethyl)phenyl]-4,5,6,7-tetrahydro-1H-pyrazolo[4,3-c]pyridin-1-yl}propyl)piperidin-4-yl]pyrrolidin-2-one], for which the pIC50 was 6.31.

Turning to `CS(=O)(=O)N1CCc2c(c(-c3ccc(C(F)(F)F)c(SCCN4CCOCC4)c3)nn2CC(O)CN2CCN(c3ccccc3O)CC2)C1` (stereo not shown) [Example 736, 2-(4-{2-Hydroxy-3-[5-(methylsulfonyl)-3-{3-[(2-morpholin-4-ylethyl)sulfanyl]-4-(trifluoromethyl)phenyl}-4,5,6,7-tetrahydro-1H-pyrazolo[4,3-c]pyridin-1-yl]propyl}piperazin-1-yl)phenol], the negative-log IC50 (pIC50) was 7.40.

As to `O=C1CCCN1C1CCN(CC(O)Cn2nc(-c3ccc(C(F)(F)F)c(SCCN4CCCCC4)c3)c3c2CCNC3)CC1` (stereo not shown) [Example 228, 1-{1-[2-Hydroxy-3-(3-{3-[(2-piperidin-1-ylethyl)sulfanyl]-4-(trifluoromethyl)phenyl}-4,5,6,7-tetrahydro-1H-pyrazolo[4,3-c]pyridin-1-yl)propyl]piperidin-4-yl}pyrrolidin-2-one], the pIC50 was 5.70.

With `COc1ccccc1C1CCN(CC(O)Cn2nc(-c3ccc(C(F)(F)F)c(SCC(=O)N4CCOCC4)c3)c3c2CCNC3)CC1` (stereo not shown) [Example 266, 1-{4-[2-(Methyloxy)phenyl]piperidin-1-yl}-3-(3-{3-[(2-morpholin-4-yl-2-oxoethyl)sulfanyl]-4-(trifluoromethyl)phenyl}-4,5,6,7-tetrahydro-1H-pyrazolo[4,3-c]pyridin-1-yl)propan-2-ol], the pIC50 was 7.00.

As for `CS(=O)(=O)N1CCc2c(c(-c3ccc(C(F)(F)F)c(SCCN4CCCC4)c3)nn2CC(O)CN2CCC(N3CC(O)CC3=O)CC2)C1` (stereo not shown) [Example 685, 4-Hydroxy-1-(1-{2-hydroxy-3-[5-(methylsulfonyl)-3-{3-[(2-pyrrolidin-1-ylethyl)sulfanyl]-4-(trifluoromethyl)phenyl}-4,5,6,7-tetrahydro-1H-pyrazolo[4,3-c]pyridin-1-yl]propyl}piperidin-4-yl)pyrrolidin-2-one], the pIC50 was 6.74.

Turning to `CS(=O)(=O)N1CCc2c(c(-c3ccc(C(F)(F)F)c(SCCN4CCC(F)(F)CC4)c3)nn2C[C@@H](O)CN2CCOCC2)C1` [Example 515, (2S)-1-{3-[3-{[2-(4,4-Difluoropiperidin-1-yl)ethyl]sulfanyl}-4-(trifluoromethyl)phenyl]-5-(methylsulfonyl)-4,5,6,7-tetrahydro-1H-pyrazolo[4,3-c]pyridin-1-yl}-3-morpholin-4-ylpropan-2-ol], the pIC50 was 6.72.

As for `CS(=O)(=O)N1CCc2c(c(-c3ccc(C(F)(F)F)c(SCc4ccc(Cl)cc4)c3)nn2CCCN2CCC(N3CCCC3=O)CC2)C1` [Example 134, 1-[1-(3-{3-[3-(4-Chloro-benzylsulfanyl)-4-trifluoromethyl-phenyl]-5-methanesulfonyl-4,5,6,7-tetrahydro-pyrazolo[4,3-c]pyridin-1-yl}-propyl)-piperidin-4-yl]-pyrrolidin-2-one], the pIC50 was 6.89.

`CC(C)(C)C1CCN(CCSc2cc(-c3nn(C[C@@H](O)CN4CCCCC4)c4c3CN(S(C)(=O)=O)CC4)ccc2C(F)(F)F)CC1` [Example 219, (2S)-1-{3-[3-({2-[4-(1,1-Dimethylethyl)piperidin-1-yl]ethyl}sulfanyl)-4-(trifluoromethyl)phenyl]-5-(methylsulfonyl)-4,5,6,7-tetrahydro-1H-pyrazolo[4,3-c]pyridin-1-yl}-3-piperidin-1-ylpropan-2-ol]: the negative-log IC50 (pIC50) is 6.43.

In the case of `OC(CN1CCC(c2ccncc2)CC1)Cn1nc(-c2ccc(C(F)(F)F)c(SCCN3CCCCC3)c2)c2c1CCNC2` (stereo not shown) [Example 343, 1-(3-{3-[(2-Piperidin-1-ylethyl)sulfanyl]-4-(trifluoromethyl)phenyl}-4,5,6,7-tetrahydro-1H-pyrazolo[4,3-c]pyridin-1-yl)-3-(4-pyridin-4-ylpiperidin-1-yl)propan-2-ol], the pIC50 was 6.18.

For the compound `O=C(CSc1cc(-c2nn(CC(O)CN3CCCCC3)c3c2CN(C(=O)CO)CC3)ccc1C(F)(F)F)N1CCOCC1` (stereo not shown) [Example 273, 1-[5-(Hydroxyacetyl)-3-{3-[(2-morpholin-4-yl-2-oxoethyl)sulfanyl]-4-(trifluoromethyl)phenyl}-4,5,6,7-tetrahydro-1H-pyrazolo[4,3-c]pyridin-1-yl]-3-piperidin-1-ylpropan-2-ol], the pIC50 is 6.72.

With `OC(CN1CCN(c2ccc(F)cc2)CC1)Cn1nc(-c2ccc(C(F)(F)F)c(SCCN3CCCCC3)c2)c2c1CCNC2` (stereo not shown) [Example 403, 1-[4-(4-Fluorophenyl)piperazin-1-yl]-3-(3-{3-[(2-piperidin-1-ylethyl)sulfanyl]-4-(trifluoromethyl)phenyl}-4,5,6,7-tetrahydro-1H-pyrazolo[4,3-c]pyridin-1-yl)propan-2-ol], the pIC50 is 6.20.

Turning to `CC(C)(O)C1CCN(CC(O)Cn2nc(-c3ccc(C(F)(F)F)c(SCCN4CCCC4)c3)c3c2CCN(S(C)(=O)=O)C3)CC1` (stereo not shown) [Example 548, 1-[4-(1-Hydroxy-1-methylethyl)piperidin-1-yl]-3-[5-(methylsulfonyl)-3-{3-[(2-pyrrolidin-1-ylethyl)sulfanyl]-4-(trifluoromethyl)phenyl}-4,5,6,7-tetrahydro-1H-pyrazolo[4,3-c]pyridin-1-yl]propan-2-ol], the pIC50 is 6.68.

In the case of `CN1CCC[C@H]1C(=O)N1CCc2c(c(-c3ccc(C(F)(F)F)c(SCCN4CCC(F)CC4)c3)nn2CC(O)CN2CCCCC2)C1` (stereo partly drawn) [Example 582, 1-{3-[3-{[2-(4-Fluoropiperidin-1-yl)ethyl]sulfanyl}-4-(trifluoromethyl)phenyl]-5-(1-methyl-L-prolyl)-4,5,6,7-tetrahydro-1H-pyrazolo[4,3-c]pyridin-1-yl}-3-piperidin-1-ylpropan-2-ol], the pIC50 is 6.28.

Regarding `CC(=O)NC1CCN(CC(O)Cn2nc(-c3ccc(C(F)(F)F)c(SCCN4CCOCC4)c3)c3c2CCN(S(C)(=O)=O)C3)C1` (stereo not shown) [Example 551, N-(1-{2-Hydroxy-3-[5-(methylsulfonyl)-3-{3-[(2-morpholin-4-ylethyl)sulfanyl]-4-(trifluoromethyl)phenyl}-4,5,6,7-tetrahydro-1H-pyrazolo[4,3-c]pyridin-1-yl]propyl}pyrrolidin-3-yl)acetamide], the pIC50 was 6.15.

As to `CS(=O)(=O)N1CCc2c(c(-c3ccc(C(F)(F)F)c(SCCN4CCOCC4)c3)nn2CC(O)CN2CCOC(CO)C2)C1` (stereo not shown) [Example 482, 1-[2-(Hydroxymethyl)morpholin-4-yl]-3-[5-(methylsulfonyl)-3-{3-[(2-morpholin-4-ylethyl)sulfanyl]-4-(trifluoromethyl)phenyl}-4,5,6,7-tetrahydro-1H-pyrazolo[4,3-c]pyridin-1-yl]propan-2-ol], the pIC50 is 5.96.

As for `CC1(O)CCN(C[C@H](O)Cn2nc(-c3ccc(C(F)(F)F)c(SCCN4CC[C@H](F)C4)c3)c3c2CCN(S(C)(=O)=O)C3)CC1` [Example 484, 1-[(2S)-3-{3-[3-({2-[(3S)-3-Fluoropyrrolidin-1-yl]ethyl}sulfanyl)-4-(trifluoromethyl)phenyl]-5-(methylsulfonyl)-4,5,6,7-tetrahydro-1H-pyrazolo[4,3-c]pyridin-1-yl}-2-hydroxypropyl]-4-methylpiperidin-4-ol], the pIC50 is 5.80.

As for `CS(=O)(=O)N1CCc2c(c(-c3ccc(C(F)(F)F)c(SCCN4CCOCC4)c3)nn2CC(O)CN2CCC(C(=O)N3CCCC3)CC2)C1` (stereo not shown) [Example 752, 1-[5-(Methylsulfonyl)-3-{3-[(2-morpholin-4-ylethyl)sulfanyl]-4-(trifluoromethyl)phenyl}-4,5,6,7-tetrahydro-1H-pyrazolo[4,3-c]pyridin-1-yl]-3-[4-(pyrrolidin-1-ylcarbonyl)piperidin-1-yl]propan-2-ol], the pIC50 is 6.49.

As for `O=C([C@H]1CCCO1)N1CCc2c(c(-c3ccc(C(F)(F)F)c(SCCN4CCC(F)CC4)c3)nn2CC(O)CN2CCCCC2)C1` (stereo partly drawn) [Example 520, 1-{3-[3-{[2-(4-Fluoropiperidin-1-yl)ethyl]sulfanyl}-4-(trifluoromethyl)phenyl]-5-[(2R)-tetrahydrofuran-2-ylcarbonyl]-4,5,6,7-tetrahydro-1H-pyrazolo[4,3-c]pyridin-1-yl}-3-piperidin-1-ylpropan-2-ol], the pIC50 is 5.83.

Consider `CS(=O)(=O)N1CCc2c(c(-c3ccc(C(F)(F)F)c(SCCN4CCC(F)CC4)c3)nn2C[C@@H](O)CN2CCC[C@H](O)C2)C1` [Example 481, (3S)-1-[(2S)-3-{3-[3-{[2-(4-Fluoropiperidin-1-yl)ethyl]sulfanyl}-4-(trifluoromethyl)phenyl]-5-(methylsulfonyl)-4,5,6,7-tetrahydro-1H-pyrazolo[4,3-c]pyridin-1-yl}-2-hydroxypropyl]piperidin-3-ol], for which the pIC50 is 6.62.

Turning to `CS(=O)(=O)N1CCc2c(c(-c3ccc(C(F)(F)F)c(SCCN4CCOCC4)c3)nn2CC(O)CN2CCC(C(F)(F)F)CC2)C1` (stereo not shown) [Example 642, 1-[5-(Methylsulfonyl)-3-{3-[(2-morpholin-4-ylethyl)sulfanyl]-4-(trifluoromethyl)phenyl}-4,5,6,7-tetrahydro-1H-pyrazolo[4,3-c]pyridin-1-yl]-3-[4-(trifluoromethyl)piperidin-1-yl]propan-2-ol], the pIC50 was 6.57.
